Molecular target: T1, eIF2Bα (Homo sapiens, UniProt Q14232)
T1 construct: made in house; host or cells: E. coli BL21(DE3)
T1 sequence (Q14232 1-305): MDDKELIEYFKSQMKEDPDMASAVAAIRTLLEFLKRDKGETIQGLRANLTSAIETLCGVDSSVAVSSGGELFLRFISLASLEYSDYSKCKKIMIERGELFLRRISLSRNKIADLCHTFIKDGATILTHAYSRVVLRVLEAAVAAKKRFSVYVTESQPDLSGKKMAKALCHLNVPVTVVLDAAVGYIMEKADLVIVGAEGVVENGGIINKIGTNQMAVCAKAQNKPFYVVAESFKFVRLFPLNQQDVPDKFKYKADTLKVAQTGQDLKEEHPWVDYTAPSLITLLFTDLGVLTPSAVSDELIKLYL
Experiment: MIDAS (mass spectrometry integrated with equilibrium dialysis) metabolite binding screen
Details: sheet eIF2Ba, metabolites screened in pools 1-4, p-value and q-value given

O=C(O)CCCC[C@@H]1SC[C@@H]2NC(=O)N[C@@H]21 [Biotin]
log2(corrected fold change): 0.08758
